{"source": "patent US20020037864A1", "about": "“2'-Propionate clarithromycin dodecyl sulfate and its preparation and pharmaceutical composition containing the same” (priority 2000, published 2002)", "origin": "cited, not measured here", "test_system": "mice", "details": "orally administrated to mice; cited from earlier work", "data": [{"substance": "2′-propionate erythromycin dodecyl sulfate [etothromycin]", "values": [{"measurement": "LD50", "result": "above 6.45 g/kg"}]}]}
